From ChEMBL document CHEMBL4732113, “Exploiting the tolerant region I of the non-nucleoside reverse transcriptase inhibitor (NNRTI) binding pocket. Part 2: Discovery of diarylpyrimidine derivatives as potent HIV-1 NNRTIs with high Fsp values and favorable drug-like properties” (Eur J Med Chem, 2021)

Test: Selectivity index, ratio of CC50 for human MT4 cells to EC50 for antiviral activity against HIV 3B infected in human MT4 cells
Assay type: toxicity, cell-based
Details: read-out: Ratio CC50/EC50

Cc1cc(C#N)cc(C)c1Oc1nc(Nc2ccc(C#N)cc2)nc(N)c1Br [ETRAVIRINE]
selectivity ratio: > 1100
